For test [1], the target named is Cannabinoid receptor 1 (Homo sapiens, UniProt P21554). As to the kind of experiment: Agonist activity at human CB1 receptor expressed in CHO-RD-HGA16 cells at 10 uM after 15 mins by FLIPR assay relative to CP55940. The test is classed as cell-based. The essentials: (§1)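 Stably transfected CHO-RD-HGA16 cells (human CB1, or CB2 for line 2) seeded the day before (CB1 25,000, CB2 30,000 cells/well), cultured overnight at 37°C, 5% CO2. Loaded 45 min at 37°C with Calcium 5 dye in HBSS/20 mM HEPES/2.5 mM probenecid, pH 7.4.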

Protein sequences, listed by entry. Tags and fused reporters are not part of them.
UniProt P21554, whole entry: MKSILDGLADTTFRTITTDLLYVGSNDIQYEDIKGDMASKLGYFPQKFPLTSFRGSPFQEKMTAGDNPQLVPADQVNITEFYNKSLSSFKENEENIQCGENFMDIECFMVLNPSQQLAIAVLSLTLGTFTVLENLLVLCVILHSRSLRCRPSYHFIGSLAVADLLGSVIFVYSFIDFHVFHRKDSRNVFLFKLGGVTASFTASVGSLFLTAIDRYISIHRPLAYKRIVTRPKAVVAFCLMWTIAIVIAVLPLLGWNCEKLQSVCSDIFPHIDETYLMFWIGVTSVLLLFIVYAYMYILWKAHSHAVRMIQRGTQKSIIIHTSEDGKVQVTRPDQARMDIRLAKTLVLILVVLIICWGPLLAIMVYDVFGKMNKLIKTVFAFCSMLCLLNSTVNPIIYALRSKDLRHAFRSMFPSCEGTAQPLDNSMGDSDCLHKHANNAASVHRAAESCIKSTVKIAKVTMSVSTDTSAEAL
UniProt P34972, whole entry: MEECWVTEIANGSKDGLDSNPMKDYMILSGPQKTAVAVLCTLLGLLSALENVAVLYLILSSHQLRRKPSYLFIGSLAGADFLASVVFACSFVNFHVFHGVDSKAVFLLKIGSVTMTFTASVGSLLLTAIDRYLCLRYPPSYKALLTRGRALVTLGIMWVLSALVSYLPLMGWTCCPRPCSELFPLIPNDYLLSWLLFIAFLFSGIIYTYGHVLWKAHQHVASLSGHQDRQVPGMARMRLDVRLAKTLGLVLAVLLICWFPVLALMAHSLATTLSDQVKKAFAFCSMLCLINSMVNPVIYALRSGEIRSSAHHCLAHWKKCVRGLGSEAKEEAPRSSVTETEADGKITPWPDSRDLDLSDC

Test [2] concerns the target Cannabinoid receptor 2 (Homo sapiens) (UniProt P34972). The experiment in a line: Agonist activity at human CB2 receptor expressed in CHO-RD-HGA16 cells at 10 uM after 15 mins by FLIPR assay relative to CP55940. The test is classed as cell-based. The essentials:
as §1

Molecules are shown by their SMILES.

Regarding `CCc1c(C(=O)NCCc2cccc(N(C)C)c2)[nH]c2ccc(Cl)cc12`, the Activity in test [1] and in test [2] was less than 30% throughout.

The values are drawn from ChEMBL document CHEMBL3399946, “Structure-activity relationships of substituted 1H-indole-2-carboxamides as CB1 receptor allosteric modulators” (Bioorg Med Chem, 2015).
